The species entered for assay [1] is Rattus norvegicus. Put plainly: Selectivity ratio of IC50 for rat recombinant GLuR1 to IC50 for rat recombinant NR1-NR2D receptor. The procedure, abridged: (§1)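 Ratio of fitted IC50 values, either NR2A/NR2D or GluR1/NR2D, from two-electrode voltage-clamp Hill fits in oocytes. Where noted, calculated from IC50 values rounded to the nearest μM.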
For assay [2], the species on record is Rattus norvegicus. Briefly: Selectivity ratio of IC50 for rat recombinant NR1-NR2A receptor to IC50 for rat recombinant NR1-NR2D receptor. In short, it runs like this: as §1
Assay [3] has as its target Ionotropic glutamate receptor NMDA 1/2D (Rattus norvegicus, UniProt P35439+Q62645). Briefly: Antagonist activity at rat recombinant NR1-NR2D receptor expressed in Xenopus oocytes at holding potential of -40mV by two-electrode voltage-clamp electrophysiology. The format is functional, cell-based, Oocyte. In short, it runs like this:
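Oocytes expressing rat NR1-1a with NR2A, NR2B, NR2C or NR2D, clamped at −40 mV in Ba2+/HEPES recording solution pH 7.4, 23°C. Current evoked by 100 μM glutamate plus 30 μM glycine. Final DMSO 0.05-0.5%, 5-7 inhibitor concentrations, ≥4 oocytes each. IC50 from Hill fit of normalized mean composite data. […] Some NR2A oocytes given BAPTA-AM or K-BAPTA.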
(In general: Two-electrode voltage clamp is typically applied to oocytes expressing channels or transporters.)

Amino acid sequences for entries named in this document (tags omitted). A change or cut given only in a name is not applied to a line headed by its entry.
UniProt Q62645, whole entry: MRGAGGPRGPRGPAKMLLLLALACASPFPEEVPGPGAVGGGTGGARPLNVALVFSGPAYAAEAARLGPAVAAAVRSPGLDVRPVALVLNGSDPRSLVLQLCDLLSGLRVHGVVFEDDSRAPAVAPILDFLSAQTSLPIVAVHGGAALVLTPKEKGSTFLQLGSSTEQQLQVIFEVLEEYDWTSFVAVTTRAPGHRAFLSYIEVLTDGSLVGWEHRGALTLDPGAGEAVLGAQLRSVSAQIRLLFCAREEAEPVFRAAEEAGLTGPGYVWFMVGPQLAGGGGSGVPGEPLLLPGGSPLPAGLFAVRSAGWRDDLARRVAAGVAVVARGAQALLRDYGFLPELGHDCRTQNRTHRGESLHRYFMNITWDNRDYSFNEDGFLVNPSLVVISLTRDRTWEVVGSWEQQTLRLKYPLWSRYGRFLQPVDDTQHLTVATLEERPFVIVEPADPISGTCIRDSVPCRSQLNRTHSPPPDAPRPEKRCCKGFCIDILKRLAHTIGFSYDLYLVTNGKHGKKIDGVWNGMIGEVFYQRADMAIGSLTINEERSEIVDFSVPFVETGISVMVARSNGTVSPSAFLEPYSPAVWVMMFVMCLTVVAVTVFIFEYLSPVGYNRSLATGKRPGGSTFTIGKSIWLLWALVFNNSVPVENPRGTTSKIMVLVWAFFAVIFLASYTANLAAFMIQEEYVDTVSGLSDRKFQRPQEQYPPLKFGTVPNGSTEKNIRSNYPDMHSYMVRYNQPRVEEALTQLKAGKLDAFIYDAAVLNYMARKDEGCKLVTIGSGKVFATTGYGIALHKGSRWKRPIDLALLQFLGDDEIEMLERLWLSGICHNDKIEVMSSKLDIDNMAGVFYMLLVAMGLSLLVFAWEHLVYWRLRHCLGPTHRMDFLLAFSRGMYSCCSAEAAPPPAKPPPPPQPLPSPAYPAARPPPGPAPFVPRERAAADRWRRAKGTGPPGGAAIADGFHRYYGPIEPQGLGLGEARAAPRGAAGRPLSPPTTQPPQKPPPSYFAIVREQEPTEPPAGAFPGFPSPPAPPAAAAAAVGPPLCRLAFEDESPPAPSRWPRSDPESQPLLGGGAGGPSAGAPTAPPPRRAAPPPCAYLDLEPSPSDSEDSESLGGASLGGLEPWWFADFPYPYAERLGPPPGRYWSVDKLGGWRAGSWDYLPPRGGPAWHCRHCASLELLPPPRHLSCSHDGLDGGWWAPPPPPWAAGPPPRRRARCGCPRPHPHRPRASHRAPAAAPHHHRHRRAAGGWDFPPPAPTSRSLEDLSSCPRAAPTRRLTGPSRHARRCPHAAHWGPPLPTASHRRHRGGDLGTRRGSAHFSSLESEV
UniProt P19490: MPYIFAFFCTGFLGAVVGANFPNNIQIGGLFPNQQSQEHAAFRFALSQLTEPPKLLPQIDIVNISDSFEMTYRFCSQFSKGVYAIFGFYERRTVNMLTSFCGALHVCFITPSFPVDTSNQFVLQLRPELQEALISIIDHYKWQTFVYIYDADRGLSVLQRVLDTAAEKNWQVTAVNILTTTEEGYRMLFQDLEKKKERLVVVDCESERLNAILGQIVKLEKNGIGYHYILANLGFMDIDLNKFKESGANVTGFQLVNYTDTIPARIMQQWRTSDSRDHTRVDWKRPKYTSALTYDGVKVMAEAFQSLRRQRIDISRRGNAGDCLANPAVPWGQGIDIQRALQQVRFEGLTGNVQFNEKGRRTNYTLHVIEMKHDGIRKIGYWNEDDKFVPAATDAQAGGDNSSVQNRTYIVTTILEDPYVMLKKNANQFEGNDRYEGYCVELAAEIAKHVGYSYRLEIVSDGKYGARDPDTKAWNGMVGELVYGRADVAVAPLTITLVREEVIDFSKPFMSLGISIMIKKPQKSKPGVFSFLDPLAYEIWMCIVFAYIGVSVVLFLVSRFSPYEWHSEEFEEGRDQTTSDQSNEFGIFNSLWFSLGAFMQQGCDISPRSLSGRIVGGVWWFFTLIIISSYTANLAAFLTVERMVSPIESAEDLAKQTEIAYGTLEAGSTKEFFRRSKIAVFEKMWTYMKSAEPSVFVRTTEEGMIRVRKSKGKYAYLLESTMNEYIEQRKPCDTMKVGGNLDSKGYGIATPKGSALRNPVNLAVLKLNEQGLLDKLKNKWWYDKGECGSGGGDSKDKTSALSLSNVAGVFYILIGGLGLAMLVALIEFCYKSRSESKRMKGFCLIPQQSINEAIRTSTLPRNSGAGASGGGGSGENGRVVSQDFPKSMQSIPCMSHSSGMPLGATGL

Another assay has as its target Glutamate receptor 1 (Rattus norvegicus, UniProt P19490). Put plainly: Antagonist activity at rat recombinant GLuR1 expressed in Xenopus oocytes assessed as inhibition of glutamate-induced current by two-electrode voltage-clamp electrophysiology. The format is functional, cell-based, Oocyte. The procedure, abridged:
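Two-electrode voltage clamp at −40 mV on Xenopus oocytes expressing rat GluR1, perfused with 90 NaCl, 1.0 KCl, 0.5 BaCl2, 0.005 EDTA, 10 HEPES (mM), pH 7.4, 23°C; activated by 100 μM glutamate. From 20 mM DMSO stocks, 5-7 concentrations, ≥4 oocytes each. Hill fit to mean composite curves normalized to control, minimum usually fixed at 0. Response >75% at 100 μM reported as >300 μM.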

Each structure is given as a SMILES string. pIC50: −log10 of the molar value.

As usually defined, the pIC50 is the IC50 on a negative log10 scale, so that one unit is a factor of ten.

As to `O=C(O)c1cccc(-n2c(/C=C/c3ccccc3[N+](=O)[O-])nc3ccccc3c2=O)c1`, the values for the Ratio IC50 in the assay filed under Rattus norvegicus [1] and in the assay filed under Rattus norvegicus [2] were 1 and 2, respectively. As to `O=C(O)c1ccccc1-n1c(/C=C/c2ccc([N+](=O)[O-])cc2)nc2ccccc2c1=O`, the Ratio IC50 in the assay listed under Rattus norvegicus [1] and in the assay listed under Rattus norvegicus [2] was 1 each time. Take `O=C(O)c1ccccc1-n1c(/C=C/c2cccc([N+](=O)[O-])c2)nc2ccccc2c1=O`: the Ratio IC50 in the assay listed under Rattus norvegicus [1] and in the assay filed under Rattus norvegicus [2] was 2 in each case. For `COc1ccccc1-n1c(/C=C/c2ccccc2[N+](=O)[O-])nc2ccccc2c1=O`, the Ratio IC50 in the assay listed under Rattus norvegicus [1] was 3; in the assay listed under Rattus norvegicus [2], 1. On the same counts, the results for `Cc1ccc2nc(CCc3ccccc3)n(-c3ccc(C(=O)O)cc3)c(=O)c2c1` are 1 and 1. `O=C(O)c1ccc(-n2c(/C=C/c3ccccc3[N+](=O)[O-])nc3ccccc3c2=O)cc1`: the pIC50 (in assay [3]; on Glutamate receptor 1) was 5.22 each time. With `COc1ccc(-n2c(/C=C/c3ccccc3[N+](=O)[O-])nc3ccccc3c2=O)cc1`, the Ratio IC50 in the assay filed under Rattus norvegicus [1] and in the assay filed under Rattus norvegicus [2] was 2 in each case.

On to `O=C(O)c1cccc(-n2c(/C=C/c3cccc([N+](=O)[O-])c3)nc3ccccc3c2=O)c1`, for which the Ratio IC50 in the assay listed under Rattus norvegicus [1] was determined as 2; in the assay filed under Rattus norvegicus [2] it was 7.

For `COc1ccc(-n2c(/C=C/c3ccc([N+](=O)[O-])cc3)nc3ccccc3c2=O)cc1`, the Ratio IC50 in the assay listed under Rattus norvegicus [1] and in the assay listed under Rattus norvegicus [2] was 1 each time. For `O=C(O)c1ccc(-n2c(/C=C/c3ccc([N+](=O)[O-])cc3)nc3ccccc3c2=O)cc1`, in the assay listed under Rattus norvegicus [2], the Ratio IC50 was 4. With `COc1ccc(-n2c(/C=C/c3cccc([N+](=O)[O-])c3)nc3ccccc3c2=O)cc1`, the Ratio IC50 in the assay filed under Rattus norvegicus [1] came to 1; in the assay listed under Rattus norvegicus [2], 2.

The record behind these values is ChEMBL document CHEMBL1212913, “Quinazolin-4-one derivatives: A novel class of noncompetitive NR2C/D subunit-selective N-methyl-D-aspartate receptor antagonists” (J Med Chem, 2010).
